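In this assay, cells in 96-well plates receive the compound at five concentrations for 48 hours. Endpoints are linearly interpolated between the surrounding concentrations. GI50 = concentration required for 50% inhibition of growth. TGI denotes the concentration required for complete inhibition of growth.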
Tests used:
Assay in all cases: NCI tumour cell line growth inhibition, 48 h
[1] = system: M19-MEL melanoma
[2] = system: A498 renal
[3] = system: SF-539 CNS
[4] = system: NCI-H226 lung
[5] = system: RXF-631 renal
[6] = system: CAKI-1 renal
[7] = system: SNB-19 CNS
[8] = system: SK-OV-3 ovarian
[9] = system: HCC-2998 colon
[10] = system: SNB-75 CNS
[11] = system: SN12C renal
[12] = system: EKVX NSCLC
[13] = system: KM12 colon
[14] = system: SK-MEL-28 melanoma
[15] = system: CCRF-CEM leukemia
[16] = system: XF 498 CNS
[17] = system: RPMI-8226 leukemia
[18] = system: UACC-257 melanoma
[19] = system: UO-31 renal
[20] = system: COLO 205 colon
[21] = system: U251 CNS
[22] = system: HOP-92 NSCLC
[23] = system: SNB-78 CNS
[24] = system: SK-MEL-2 melanoma
[25] = system: HL-60(TB) leukemia
[26] = system: DMS 273 small cell lung
[27] = system: NCI-H460 lung
[28] = system: SF-268 CNS
[29] = system: OVCAR-3 ovarian
[30] = system: MALME-3M melanoma
[31] = system: TK-10 renal
[32] = system: A549 NSCLC
[33] = system: SF-295 CNS
[34] = system: 786-0 renal
[35] = system: LOX IMVI melanoma
[36] = system: DMS 114 small cell lung
[37] = system: HOP-62 NSCLC
[38] = system: UACC-62 melanoma
[39] = system: OVCAR-8 ovarian
[40] = system: IGROV1 ovarian
[41] = system: KM20L2 colon
[42] = system: NCI-H322M lung
[43] = system: RXF 393 renal
[44] = system: K-562 leukemia
[45] = system: SK-MEL-5 melanoma
[46] = system: M14 melanoma
[47] = system: LXFL 529 NSCLC
[48] = system: NCI-H522 lung
[49] = system: HT29 colon
[50] = system: MOLT-4 leukemia
[51] = system: SW-620 colon
[52] = system: DLD-1 colon

Cc1[nH]c2cc([N+](=O)[O-])c([N+](=O)[O-])cc2c1[N+](=O)[O-]
GI50 [1]: 20.1 µM | TGI [1]: 66.7 µM | GI50 [2]: 14.6 µM | TGI [2]: 44.4 µM | GI50 [3]: 12.3 µM | TGI [3]: 52.5 µM | GI50 [4]: 20.7 µM | TGI [4]: 52.5 µM | GI50 [5]: 8.94 µM | TGI [5]: 37.1 µM | GI50 [6]: 18.5 µM | TGI [6]: 72.2 µM | GI50 [7]: 15.2 µM | TGI [7]: 77.8 µM | GI50 [8]: 22.2 µM | TGI [8]: 56.3 µM | GI50 [9]: 15.4 µM | TGI [9]: 30 µM | GI50 [10]: 9.98 µM | TGI [10]: 43.2 µM | GI50 [11]: 22.2 µM | TGI [11]: > 100 µM | GI50 [12]: 30.2 µM | TGI [12]: 84.1 µM | GI50 [13]: 13.3 µM | TGI [13]: 49.1 µM | GI50 [14]: 18.6 µM | TGI [14]: 60.9 µM | GI50 [15]: 15.6 µM | TGI [15]: 59.6 µM | GI50 [16]: 18.1 µM | TGI [16]: 48.1 µM | GI50 [17]: 2.86 µM | TGI [17]: 27.5 µM | GI50 [18]: 16.3 µM | TGI [18]: 56.2 µM | GI50 [19]: 13.8 µM | TGI [19]: 36.6 µM | GI50 [20]: 13.7 µM | TGI [20]: 28 µM | GI50 [21]: 14.7 µM | TGI [21]: 69 µM | GI50 [22]: 3.53 µM | TGI [22]: 20.1 µM | GI50 [23]: 13.3 µM | TGI [23]: 61.4 µM | GI50 [24]: 16.7 µM | TGI [24]: 44 µM | GI50 [25]: 13.5 µM | TGI [25]: 50 µM | GI50 [26]: 16.2 µM | TGI [26]: 43.4 µM | GI50 [27]: 21.4 µM | TGI [27]: > 100 µM | GI50 [28]: 31.7 µM | TGI [28]: > 100 µM | GI50 [29]: 14.7 µM | TGI [29]: 46.3 µM | GI50 [30]: 14.6 µM | TGI [30]: 37.5 µM | GI50 [31]: 19.4 µM | TGI [31]: 56 µM | GI50 [32]: 19.4 µM | TGI [32]: 82.4 µM | GI50 [33]: 9.64 µM | TGI [33]: 40.2 µM | GI50 [34]: 20.6 µM | TGI [34]: 86 µM | GI50 [35]: 23.9 µM | TGI [35]: 95.8 µM | GI50 [36]: 14.4 µM | TGI [36]: 32.2 µM | GI50 [37]: 21.4 µM | TGI [37]: 51.5 µM | GI50 [38]: 14.7 µM | TGI [38]: 43.3 µM | GI50 [39]: 25.6 µM | TGI [39]: 82 µM | GI50 [40]: 28.1 µM | TGI [40]: 87.4 µM | GI50 [41]: 23 µM | TGI [41]: 71.6 µM | GI50 [42]: 12.8 µM | TGI [42]: 39.3 µM | GI50 [43]: 17.3 µM | TGI [43]: 59.3 µM | GI50 [44]: 13.5 µM | TGI [44]: 60 µM | GI50 [45]: 14.4 µM | TGI [45]: 34.1 µM | GI50 [46]: 16.7 µM | TGI [46]: 40.2 µM | GI50 [47]: 12.9 µM | TGI [47]: 28.9 µM | GI50 [48]: 8.91 µM | TGI [48]: 26.7 µM | GI50 [49]: 17.5 µM | TGI [49]: 51.9 µM | GI50 [50]: 15.3 µM | TGI [50]: 45.8 µM | GI50 [51]: 24 µM | TGI [51]: 71.1 µM | GI50 [52]: 24.9 µM | TGI [52]: 77.5 µM

Reference: PubChem BioAssay (NCI)
